Results published in patent US11427593B2, “Bromodomain inhibitor compound and use thereof” (SHANGHAI INSTITUTE OF MATERIA MEDICA, CHINESE ACADEMY OF …, priority 2018, dated 2022).

Target: BRD4_BD1 (49-170) protein (Homo sapiens (Human), UniProt O60885)
Experiment: AlphaScreen assay: inhibition of binding of BRD4 bromodomain BD1 to acetylated histone H4 polypeptide
Details: read-out: ALPHA IC50, BRD4 BD1 vs acetylated H4 polypeptide

Compound: Cc1cc(-c2cc(NS(C)(=O)=O)ccc2OC2CCC(F)(F)CC2)n2cc[nH]c(=O)c12
- IC50: 71.3 nM

Compound: Cc1cc(-c2cc(S(C)(=O)=O)ccc2OC2CCC(F)(F)CC2)n2cc[nH]c(=O)c12
- IC50: 41.9 nM
